From paper PMC7889650

Sequences of proteins named here, by UniProt entry; tags and fusion partners are left off. Residues count along the entry.
UniProt Q9BZ95, 680-1437 K1206A/K1234A: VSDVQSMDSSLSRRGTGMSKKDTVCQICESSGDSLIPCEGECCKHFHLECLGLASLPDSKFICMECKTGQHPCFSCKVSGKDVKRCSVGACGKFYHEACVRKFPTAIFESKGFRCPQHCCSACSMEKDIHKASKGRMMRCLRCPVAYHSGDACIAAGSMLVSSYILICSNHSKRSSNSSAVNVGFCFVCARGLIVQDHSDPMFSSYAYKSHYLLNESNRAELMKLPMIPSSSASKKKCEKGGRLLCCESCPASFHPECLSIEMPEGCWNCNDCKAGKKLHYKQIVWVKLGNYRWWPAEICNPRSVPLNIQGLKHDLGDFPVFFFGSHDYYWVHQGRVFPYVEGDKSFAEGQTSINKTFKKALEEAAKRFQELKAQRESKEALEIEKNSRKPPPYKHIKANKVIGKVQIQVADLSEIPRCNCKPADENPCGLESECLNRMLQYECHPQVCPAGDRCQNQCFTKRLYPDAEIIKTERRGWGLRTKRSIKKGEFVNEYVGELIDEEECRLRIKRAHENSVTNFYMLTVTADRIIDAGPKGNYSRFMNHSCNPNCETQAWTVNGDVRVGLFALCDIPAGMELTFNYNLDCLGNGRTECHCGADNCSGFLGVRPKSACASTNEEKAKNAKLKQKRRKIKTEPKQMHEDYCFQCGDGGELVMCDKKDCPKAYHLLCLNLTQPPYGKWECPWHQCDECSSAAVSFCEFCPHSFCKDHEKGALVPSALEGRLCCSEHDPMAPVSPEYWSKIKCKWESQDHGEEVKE
UniProt Q9BZ95, 680-1437 R1287A/K1289A: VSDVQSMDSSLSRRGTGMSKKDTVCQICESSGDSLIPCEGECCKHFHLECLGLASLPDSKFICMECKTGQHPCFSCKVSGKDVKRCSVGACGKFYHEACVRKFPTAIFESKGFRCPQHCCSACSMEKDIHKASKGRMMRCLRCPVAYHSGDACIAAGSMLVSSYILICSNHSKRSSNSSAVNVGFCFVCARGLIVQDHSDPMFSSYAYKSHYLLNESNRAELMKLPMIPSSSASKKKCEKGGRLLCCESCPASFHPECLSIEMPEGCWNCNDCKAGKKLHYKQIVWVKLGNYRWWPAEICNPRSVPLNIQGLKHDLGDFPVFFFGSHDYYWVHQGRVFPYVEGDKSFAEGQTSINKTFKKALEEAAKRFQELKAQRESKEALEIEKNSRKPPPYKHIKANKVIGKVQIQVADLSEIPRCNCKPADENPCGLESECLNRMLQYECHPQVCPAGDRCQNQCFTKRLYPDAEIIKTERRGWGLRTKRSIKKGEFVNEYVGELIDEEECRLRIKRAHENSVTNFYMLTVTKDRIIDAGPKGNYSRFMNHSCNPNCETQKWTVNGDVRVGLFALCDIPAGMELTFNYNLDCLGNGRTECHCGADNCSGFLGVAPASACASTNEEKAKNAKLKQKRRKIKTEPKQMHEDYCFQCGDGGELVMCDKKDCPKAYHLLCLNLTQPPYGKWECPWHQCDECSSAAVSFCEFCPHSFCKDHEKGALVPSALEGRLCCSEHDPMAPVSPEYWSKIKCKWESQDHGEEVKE

How the values were obtained:
[1] = biological target: 6xHis-MBP-tagged NSD3 (680–1437) K1206A/K1234A (human) (UniProt Q9BZ95); assay: MST
[2] = biological target: 6xHis-MBP-tagged NSD3 (680–1437) R1287A/K1289A (human) (UniProt Q9BZ95); assay: MST

With “187-bp nucleosome core particle (complex)” the percent of binding affinity lost relative to wild type [1] was 78% and the percent of binding affinity lost relative to wild type [2] was 68%.
